Measurements reported in patent US8080632B2, “Peptide mimics of melanocyte stimulating hormone” (The Feinstein Institute for Medical Research, priority 2005, dated 2011).

Key:
[1] = system: RAW 264.7 cells; assay: HMGB1-induced TNF release by RAW cells (also with anti-MC1R Ab or H89)
[2] = system: RAW 264.7 cells; assay: Endotoxin-stimulated TNF release with agouti (Table 1); format: cell-based, murine
[3] = system: RAW 264.7 cells; assay: LPS-induced HMGB1 release by macrophages; format: cell-based, murine; details: peptide at 100 pM, LPS 100 ng/ml, overnight incubation
[4] = system: Human peripheral blood mononuclear cells; assay: HMGB1-induced TNF release by human macrophages in culture; format: cell-based; details: 6 hours

## O=S(=O)(NCCNC/C=C/c1ccc(Br)cc1)c1cccc2cnccc12 [H89]
[1]; H89 1 μM, peptides 10^−10 M, 6 h
  effect of H89 on peptide attenuation of HMGB1-induced TNF: abrogated the effects of the three peptides

## Mouse agouti (93-132)-NH2
[2]
  TNF levels with agouti plus LPS versus LPS alone: significantly above those observed with LPS alone
  effect of agouti on attenuation of LPS-induced TNF release by α-MSH and MECO-1: reversed the attenuation

## adrenocorticotropic hormone (SYSMEHFRWGKPVGKKRRPVKVYPNGAEDESAEAFPLEF; mammalian melanocortin ACTH (1-39)) [obtained from Bachem Bioscience]
[3]
  LPS-induced release of HMGB1: indistinguishable from α-MSH
[3]; listed as ACTH
  LPS-induced release of HMGB1: markedly blunted
[1]; data not shown
  suppression of HMGB1-induced TNF release, dose dependence: highly significant suppression in the subpicomolar range
[4]
  attenuation of HMGB1-induced TNF release: very similar results
